The list shows a part of the results, in another mix than the full data. Activity calls are given as the source filed them.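 How the source made its calls: active means inhibition above about 50% at the single tested dose (limit read from the data); inactive means the rest.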

The chains behind the UniProt entries cited, without tags or fusion partners. Residues count along the entry.
UniProt Q9GZR1, 628-1112 limits assumed: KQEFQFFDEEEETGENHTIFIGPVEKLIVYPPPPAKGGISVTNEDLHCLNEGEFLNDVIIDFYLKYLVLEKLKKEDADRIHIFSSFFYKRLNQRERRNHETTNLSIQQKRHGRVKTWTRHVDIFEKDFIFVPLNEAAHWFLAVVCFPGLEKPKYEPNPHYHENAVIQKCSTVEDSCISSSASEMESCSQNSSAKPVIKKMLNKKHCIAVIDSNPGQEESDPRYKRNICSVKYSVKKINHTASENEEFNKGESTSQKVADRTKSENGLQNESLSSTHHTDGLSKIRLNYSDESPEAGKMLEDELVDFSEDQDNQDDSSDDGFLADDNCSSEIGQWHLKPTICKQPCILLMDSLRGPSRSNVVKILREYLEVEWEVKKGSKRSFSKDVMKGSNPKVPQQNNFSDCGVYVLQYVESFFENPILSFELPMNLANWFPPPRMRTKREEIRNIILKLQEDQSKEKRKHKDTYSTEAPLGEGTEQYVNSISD

The target of this experiment is Sentrin-specific protease 6 (Homo sapiens) (UniProt Q9GZR1). Put plainly: SENP6 protease inhibitors, primary screen, biochemical, luminescence, uHTS (AID 2599).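 Further: plate controls were DMSO wells with enzyme for no effect and DMSO wells lacking enzyme for full effect.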 The note with it: Recombinant SENP6 catalytic domain, aminoluciferin luminescence; at 10 µM; hits give high values.
Consider `Cc1ccc(OP(=O)(Nc2ccc([N+](=O)[O-])cn2)Oc2ccc(C)cc2)cc1`, for which the inhibition – broadly, the change of the read-out against control, counted positive when it falls – is inactive: -2.69%.
